According to PubChem BioAssay (NCI):
Only a part is listed here, and it is no random draw.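 Single-dose data. Exposure time 48 hours. Values below 10 considered active.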 Activity calls are given as the source filed them.

Tests used:
Experiment in all cases: NCI-60 one-dose screen, 48 h (100 = growth as untreated, 0 = no growth, -100 = all killed)
Conditions in all cases: 10 µM unless noted
NCI-H23 lung = system: NCI-H23 lung
NCI-H226 lung = system: NCI-H226 lung
NCI-H322M lung = system: NCI-H322M lung
HOP-62 NSCLC = system: HOP-62 NSCLC
NCI-H460 lung = system: NCI-H460 lung
HOP-92 NSCLC = system: HOP-92 NSCLC
NCI-H522 lung = system: NCI-H522 lung
A549/ATCC NSCLC = system: A549/ATCC NSCLC
786-0 renal = system: 786-0 renal
COLO 205 colon = system: COLO 205 colon

Measured: growth

NC(=O)c1[nH]cnc1/N=N\N(CCCl)CCCl
inactive: NCI-H23 lung 102% | NCI-H226 lung 100% | NCI-H322M lung 148% | HOP-62 NSCLC 99.9% | NCI-H460 lung 105% | HOP-92 NSCLC 94.5% | NCI-H522 lung 97.9% | A549/ATCC NSCLC 104% | 786-0 renal 97.4% | COLO 205 colon 111%

O=C(O)/C=C\c1cccc(N(CCCl)CCCl)c1
inactive: NCI-H23 lung 110% | NCI-H226 lung 103% | NCI-H322M lung 110% | HOP-62 NSCLC 107% | NCI-H460 lung 97.2% | HOP-92 NSCLC 78.4% | A549/ATCC NSCLC 97.5% | 786-0 renal 109% | COLO 205 colon 122%

ClC1(Cl)SC(Cl)(Cl)C(Cl)(Cl)C1(Cl)Cl
inactive: NCI-H23 lung 93.8% | NCI-H226 lung 105% | NCI-H322M lung 91.9% | HOP-62 NSCLC 100% | NCI-H460 lung 108% | NCI-H522 lung 81.8% | A549/ATCC NSCLC 108% | 786-0 renal 103% | COLO 205 colon 113%

O=C(O)CNc1ccc([As](=O)(O)O)cc1
inactive: NCI-H23 lung 118% | NCI-H226 lung 92% | NCI-H322M lung 96.3% | HOP-62 NSCLC 99.8% | NCI-H460 lung 105% | NCI-H522 lung 93.1% | A549/ATCC NSCLC 106% | 786-0 renal 101% | COLO 205 colon 121%

Cc1ccccc1CN(CCCl)Cc1ccccc1C
inactive: NCI-H23 lung 95.8% | NCI-H226 lung 96.8% | NCI-H322M lung 100% | HOP-62 NSCLC 109% | NCI-H460 lung 99.2% | NCI-H522 lung 104% | A549/ATCC NSCLC 97% | COLO 205 colon 108%

CCSC(O)C(Cl)(Cl)Cl (configuration not stated)
inactive: NCI-H23 lung 102% | NCI-H226 lung 92.7% | NCI-H322M lung 93.6% | HOP-62 NSCLC 101% | NCI-H460 lung 105% | NCI-H522 lung 96.5% | A549/ATCC NSCLC 100% | 786-0 renal 103% | COLO 205 colon 116%

CCOC(=O)Nc1cccc([As](=O)(O)O)c1
inactive: NCI-H23 lung 107% | NCI-H226 lung 78.7% | NCI-H322M lung 93.7% | HOP-62 NSCLC 86.3% | NCI-H460 lung 101% | NCI-H522 lung 87.3% | A549/ATCC NSCLC 117% | 786-0 renal 101% | COLO 205 colon 108%

ClC(Cl)(Cl)C1SCCS1
inactive: NCI-H23 lung 101% | NCI-H226 lung 109% | NCI-H322M lung 96.8% | HOP-62 NSCLC 115% | NCI-H460 lung 110% | NCI-H522 lung 105% | A549/ATCC NSCLC 97.5% | 786-0 renal 109% | COLO 205 colon 109%

CC(C)=N/N=C(\N)N[N+](=O)[O-]
inactive: NCI-H23 lung 95.2% | NCI-H226 lung 102% | NCI-H322M lung 120% | HOP-62 NSCLC 114% | NCI-H460 lung 110% | NCI-H522 lung 97.7% | A549/ATCC NSCLC 96% | 786-0 renal 113% | COLO 205 colon 109%

CN(C)P(=O)(Nc1ccccn1)N(C)C
inactive: NCI-H23 lung 105% | NCI-H226 lung 95.4% | NCI-H322M lung 106% | HOP-62 NSCLC 113% | NCI-H460 lung 109% | NCI-H522 lung 99.5% | A549/ATCC NSCLC 91.1% | 786-0 renal 101% | COLO 205 colon 123%

CCOP(=O)(CCCBr)OCC
inactive: NCI-H23 lung 108% | NCI-H226 lung 93.5% | NCI-H322M lung 99.4% | HOP-62 NSCLC 102% | NCI-H460 lung 107% | NCI-H522 lung 97.5% | A549/ATCC NSCLC 96.8% | 786-0 renal 106% | COLO 205 colon 120%

O=[As](O)(c1cccs1)c1cccs1
inactive: NCI-H23 lung 96.8% | NCI-H226 lung 110% | NCI-H322M lung 92.7% | HOP-62 NSCLC 87.3% | NCI-H460 lung 104% | NCI-H522 lung 81.3% | A549/ATCC NSCLC 96.4% | 786-0 renal 88.6% | COLO 205 colon 116%

O=P(Nc1ncccn1)(N1CC1)N1CC1
inactive: NCI-H23 lung 97.5% | NCI-H226 lung 94.5% | NCI-H322M lung 108% | HOP-62 NSCLC 114% | NCI-H460 lung 104% | NCI-H522 lung 115% | A549/ATCC NSCLC 87.7% | 786-0 renal 108% | COLO 205 colon 108%

O=[As](O)(O)c1cccnc1
inactive: NCI-H23 lung 123% | NCI-H226 lung 105% | NCI-H322M lung 113% | HOP-62 NSCLC 103% | NCI-H460 lung 103% | NCI-H522 lung 107% | A549/ATCC NSCLC 103% | 786-0 renal 112% | COLO 205 colon 131%

ClP1(Cl)=NP(Cl)(Cl)=NP(c2ccccc2)(c2ccccc2)=N1
inactive: NCI-H23 lung 98.3% | NCI-H226 lung 106% | NCI-H322M lung 81.8% | HOP-62 NSCLC 84.5% | NCI-H460 lung 103% | NCI-H522 lung 61.6% | A549/ATCC NSCLC 88.5% | 786-0 renal 94.1% | COLO 205 colon 92.2%

O=P1(N(CCCl)CCCl)OCCCS1 (configuration not stated)
inactive: NCI-H23 lung 91.2% | NCI-H226 lung 115% | NCI-H322M lung 124% | HOP-62 NSCLC 113% | NCI-H460 lung 110% | NCI-H522 lung 98.5% | A549/ATCC NSCLC 106% | 786-0 renal 105% | COLO 205 colon 126%

CCN(CCCl)C(Cc1ccccc1)c1ccccc1 (configuration not stated)
inactive: NCI-H23 lung 100% | NCI-H226 lung 105% | NCI-H322M lung 84.8% | HOP-62 NSCLC 95.6% | NCI-H460 lung 105% | NCI-H522 lung 74.4% | A549/ATCC NSCLC 83.1% | 786-0 renal 101% | COLO 205 colon 101%

NC(=S)N/N=C/c1ccc(N(CCF)CCCl)cc1
inactive: NCI-H23 lung 103% | NCI-H226 lung 89.6% | NCI-H322M lung 106% | HOP-62 NSCLC 83.6% | NCI-H460 lung 97.1% | NCI-H522 lung 90.6% | A549/ATCC NSCLC 86.2% | 786-0 renal 114% | COLO 205 colon 105%

COc1ccc([As](=O)(O)O)cc1
inactive: NCI-H23 lung 113% | NCI-H226 lung 96.6% | NCI-H322M lung 115% | HOP-62 NSCLC 113% | NCI-H460 lung 116% | HOP-92 NSCLC 103% | A549/ATCC NSCLC 102% | 786-0 renal 102% | COLO 205 colon 116%

Cc1ccccc1OP(=O)(Cl)Oc1ccccc1C
inactive: NCI-H23 lung 106% | NCI-H226 lung 96% | NCI-H322M lung 103% | HOP-62 NSCLC 99% | NCI-H460 lung 106% | NCI-H522 lung 94% | A549/ATCC NSCLC 103% | 786-0 renal 96.7% | COLO 205 colon 106%

COC(=O)C(=[N+]=[N-])C(=O)c1cc([N+](=O)[O-])cc([N+](=O)[O-])c1
inactive: NCI-H23 lung 114% | NCI-H226 lung 109% | NCI-H322M lung 113% | HOP-62 NSCLC 106% | NCI-H460 lung 105% | NCI-H522 lung 124% | A549/ATCC NSCLC 112% | 786-0 renal 96.8% | COLO 205 colon 107%

ClCCN1c2ccccc2Sc2ccccc21
inactive: NCI-H23 lung 94.2% | NCI-H226 lung 104% | NCI-H322M lung 105% | HOP-62 NSCLC 105% | NCI-H460 lung 104% | NCI-H522 lung 98.6% | A549/ATCC NSCLC 99.8% | 786-0 renal 105% | COLO 205 colon 116%

CCN(CCCl)c1ccc(CCC(=O)O)cc1
inactive: NCI-H23 lung 105% | NCI-H226 lung 106% | NCI-H322M lung 81.9% | HOP-62 NSCLC 93.1% | NCI-H460 lung 101% | NCI-H522 lung 71.1% | A549/ATCC NSCLC 83.6% | 786-0 renal 104% | COLO 205 colon 98%

COc1cc(I)ccc1[As](=O)(O)O
inactive: NCI-H23 lung 135% | NCI-H226 lung 111% | NCI-H322M lung 115% | HOP-62 NSCLC 111% | NCI-H460 lung 105% | NCI-H522 lung 114% | A549/ATCC NSCLC 102% | 786-0 renal 104% | COLO 205 colon 144%

ClCCN1c2ccccc2Oc2ccccc21
inactive: NCI-H23 lung 95.4% | NCI-H226 lung 101% | NCI-H322M lung 100% | HOP-62 NSCLC 100% | NCI-H460 lung 112% | NCI-H522 lung 99% | A549/ATCC NSCLC 101% | 786-0 renal 101% | COLO 205 colon 117%

O=Cc1sc(N(CCCl)CCCl)nc1Cl
inactive: NCI-H23 lung 109% | NCI-H226 lung 101% | NCI-H322M lung 111% | HOP-62 NSCLC 102% | NCI-H460 lung 104% | NCI-H522 lung 85.6% | A549/ATCC NSCLC 96.5% | 786-0 renal 106% | COLO 205 colon 104%

CCOP(=O)(Nc1ccc(C)cn1)OCC
inactive: NCI-H23 lung 94.2% | NCI-H226 lung 122% | NCI-H322M lung 120% | HOP-62 NSCLC 106% | NCI-H460 lung 102% | NCI-H522 lung 97.4% | A549/ATCC NSCLC 93.1% | 786-0 renal 103% | COLO 205 colon 115%

COc1cccc(OC)c1N(CCCl)CCCl
inactive: NCI-H23 lung 99% | NCI-H226 lung 104% | NCI-H322M lung 93.3% | HOP-62 NSCLC 96.9% | NCI-H460 lung 110% | NCI-H522 lung 86.2% | A549/ATCC NSCLC 102% | 786-0 renal 93.2% | COLO 205 colon 97.7%

O=P1(N(CCCl)CCCl)OCCCN1CCCl (configuration not stated)
inactive: NCI-H23 lung 116% | NCI-H226 lung 89.2% | NCI-H322M lung 123% | HOP-62 NSCLC 104% | NCI-H460 lung 101% | NCI-H522 lung 114% | A549/ATCC NSCLC 101% | 786-0 renal 91.1% | COLO 205 colon 110%

COP(=O)(OC)N(CCCl)CCCl
inactive: NCI-H23 lung 108% | NCI-H226 lung 93% | NCI-H322M lung 98.7% | HOP-62 NSCLC 102% | NCI-H460 lung 102% | NCI-H522 lung 103% | A549/ATCC NSCLC 95.4% | 786-0 renal 104% | COLO 205 colon 115%

O=P1(N(CCCl)CCCl)Nc2ccccc2N1
inactive: NCI-H23 lung 99% | NCI-H226 lung 99.6% | NCI-H322M lung 109% | HOP-62 NSCLC 113% | NCI-H460 lung 115% | NCI-H522 lung 117% | A549/ATCC NSCLC 112% | 786-0 renal 111% | COLO 205 colon 123%

Nc1ccc(N=Nc2ccc([As](=O)(O)O)cc2)cc1
inactive: NCI-H23 lung 104% | NCI-H226 lung 93.8% | NCI-H322M lung 92.1% | HOP-62 NSCLC 102% | NCI-H460 lung 109% | NCI-H522 lung 92.4% | A549/ATCC NSCLC 101% | 786-0 renal 101% | COLO 205 colon 106%

ClCCN1CCNCC1
inactive: NCI-H23 lung 104% | NCI-H226 lung 113% | NCI-H322M lung 113% | HOP-62 NSCLC 113% | NCI-H460 lung 106% | NCI-H522 lung 95.5% | A549/ATCC NSCLC 99.9% | 786-0 renal 102% | COLO 205 colon 106%
